Test results as given in patent US10745365B2, “Luminogenic and fluorogenic compounds and methods to detect molecules or conditions” (Promega Corporation, priority 2005, dated 2020).

The chains behind the UniProt entries cited, without tags or fusion partners.
UniProt P08659, whole entry: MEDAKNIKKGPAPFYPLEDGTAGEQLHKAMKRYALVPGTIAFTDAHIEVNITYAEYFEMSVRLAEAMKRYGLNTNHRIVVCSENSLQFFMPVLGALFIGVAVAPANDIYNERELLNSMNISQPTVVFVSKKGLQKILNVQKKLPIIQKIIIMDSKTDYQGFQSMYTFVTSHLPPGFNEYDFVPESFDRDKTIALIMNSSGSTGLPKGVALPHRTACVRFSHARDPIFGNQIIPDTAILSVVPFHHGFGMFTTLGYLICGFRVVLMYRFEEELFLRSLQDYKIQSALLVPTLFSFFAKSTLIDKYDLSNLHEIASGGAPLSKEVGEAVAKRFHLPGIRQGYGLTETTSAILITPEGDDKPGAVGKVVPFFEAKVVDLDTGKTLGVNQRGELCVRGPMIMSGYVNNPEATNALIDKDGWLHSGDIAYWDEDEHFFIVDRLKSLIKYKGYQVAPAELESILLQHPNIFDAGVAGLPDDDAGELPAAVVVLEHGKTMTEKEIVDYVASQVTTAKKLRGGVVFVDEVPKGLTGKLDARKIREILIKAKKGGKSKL

Tests used:
[1] = biological target: T1, QuantiLum Luciferase (firefly luciferase) (Photinus pyralis, UniProt P08659); test: Light emission of QuantiLum firefly luciferase with luciferin derivatives; conditions: for Light reading (Turner 20/20) at time 0: 0 min; for Light reading (Turner 20/20) at time 7: 7 min; for Light reading (Turner 20/20) at time 15: 15 min; for Light reading (Turner 20/20) at time 22: 22 min; for Light reading (Turner 20/20) at time 30: 30 min; for Light reading (Turner 20/20) at time 45: 45 min; for Light reading (Turner 20/20) at time 60: 60 min
[2] = biological target: T1, QuantiLum Luciferase (firefly luciferase); test: pH dependence of firefly luciferase signal with luciferin or 5′-fluoroluciferin; type: biochemical; set-up: purchased Promega Corporation El 70
[3] = biological target: T1, QuantiLum Luciferase (firefly luciferase); test: pH titration of 7′-fluoroluciferin luciferase reaction; type: biochemical; set-up: purchased Promega Corporation El 70
Procedure: For pH titrations, reagent was created containing 100 mM HEPES, 100 mM PIPES, 100 mM Tricine, 1 mM CDTA, 0.5% Tergitol NP-9, 0.03% Benzyl dodecyldimethyl ammonium bromide, 30 mM thiourea, 3 mM ATP, 6 mM magnesium sulfate, and 0.15 mM 7′-fluoroluciferin. All compounds except fluoroluciferin and ATP were purchased from Sigma Chemical. APT was purchased from Amersham/Invitrogen. The pH of solution was adjusted within the range of 8.5 to 6.4. Reactions were initiated by adding equal volumes (0.1 ml) of reagent and DMEM medium (Gibco/Invitrogen) containing 0.1% Prionex® (Pentapharm) and 1.4×10-5 mg/ml QuantiLum™ Luciferase (Promega Corporation).
Luminescence was measured for 0.5 seconds per well using Turner Biosystems Veritas.

[4] = biological target: T1, QuantiLum Luciferase (firefly luciferase); test: Residual active QuantiLum luciferase after reaction with derivative (Steady Glo); type: biochemical; set-up: purchased Promega Corporation El 70

O=C(O)[C@H]1CSC(c2nc3ccc(O)cc3s2)=N1 [luciferin, (4S)-4,5-dihydro-2-(6-hydroxybenzothiazolyl)-4-thiazolecarboxylic acid, reference compound]
Light reading (Turner 20/20) at time 0 ([1]; +Co A): off
Light reading (Turner 20/20) at time 7 ([1]; +Co A): off
Light reading (Turner 20/20) at time 15 ([1]; +Co A): 1,817,884,672
Light reading (Turner 20/20) at time 22 ([1]; +Co A): 1,207,508,736
Light reading (Turner 20/20) at time 30 ([1]; +Co A): 1,075,446,272
Light reading (Turner 20/20) at time 45 ([1]; +Co A): 737,134,016
Light reading (Turner 20/20) at time 60 ([1]; +Co A): 516,780,608
Light reading (Turner 20/20) at time 0 ([1]; +DTT): off
Light reading (Turner 20/20) at time 7 ([1]; +DTT): off
Light reading (Turner 20/20) at time 15 ([1]; +DTT): off
Light reading (Turner 20/20) at time 22 ([1]; +DTT): 1,828,845,952
Light reading (Turner 20/20) at time 30 ([1]; +DTT): 1,369,086,080
Light reading (Turner 20/20) at time 45 ([1]; +DTT): 882,840,768
Light reading (Turner 20/20) at time 60 ([1]; +DTT): 640,560,896
Light reading (Turner 20/20) at time 0 ([1]; No Additive): off
Light reading (Turner 20/20) at time 7 ([1]; No Additive): off
Light reading (Turner 20/20) at time 15 ([1]; No Additive): 1,920,967,552
Light reading (Turner 20/20) at time 22 ([1]; No Additive): 1,340,545,280
Light reading (Turner 20/20) at time 30 ([1]; No Additive): 1,080,656,384
Light reading (Turner 20/20) at time 45 ([1]; No Additive): 698,897,920
Light reading (Turner 20/20) at time 60 ([1]; No Additive): 507,915,488
Light reading (Turner 20/20) at time 0 ([1]; no ATP): 1,013,266
Light reading (Turner 20/20) at time 7 ([1]; no ATP): 7,266
Light reading (Turner 20/20) at time 15 ([1]; no ATP): 2,253
Light reading (Turner 20/20) at time 22 ([1]; no ATP): 248,151
Light reading (Turner 20/20) at time 30 ([1]; no ATP): 194,980
Light reading (Turner 20/20) at time 45 ([1]; no ATP): 27,586
Light reading (Turner 20/20) at time 60 ([1]; no ATP): 22,270
Absolute Luminescence ([2]; pH 6.900, MOPS): 330,277 RLU
Relative Luminescence (% of 8.3 Luciferin) ([2]; pH 6.900, MOPS): 23%
increase of luminescence over the pH range tested ([2]; pH 6.9 to 8.3): ~5 fold
Absolute Luminescence ([2]; pH 7.133, MOPS): 490,814 RLU
Relative Luminescence (% of 8.3 Luciferin) ([2]; pH 7.133, MOPS): 34%
Absolute Luminescence ([2]; pH 7.296, MOPS): 585,743 RLU
Relative Luminescence (% of 8.3 Luciferin) ([2]; pH 7.296, MOPS): 40%
Absolute Luminescence ([2]; pH 7.303, HEPES): 482,253 RLU
Relative Luminescence (% of 8.3 Luciferin) ([2]; pH 7.303, HEPES): 33%
Absolute Luminescence ([2]; pH 7.499, MOPS): 707,832 RLU
Relative Luminescence (% of 8.3 Luciferin) ([2]; pH 7.499, MOPS): 48%
Absolute Luminescence ([2]; pH 7.521, HEPES): 661,829 RLU
Relative Luminescence (% of 8.3 Luciferin) ([2]; pH 7.521, HEPES): 45%
Absolute Luminescence ([2]; pH 7.720, HEPES): 815,317 RLU
Relative Luminescence (% of 8.3 Luciferin) ([2]; pH 7.720, HEPES): 56%
Absolute Luminescence ([2]; pH 7.892, HEPES): 976,654 RLU
Relative Luminescence (% of 8.3 Luciferin) ([2]; pH 7.892, HEPES): 67%
pH optima of firefly luciferase reaction [3]: approximately 8.2
loss of luciferase activity on transformation of substrate ([4]; no additive (reactions 3A, 4A)): does not lead to a large loss of luciferase activity
Light emission from the active enzyme, sample time 0 min ([4]; reaction type A: no additive): 183.6
Light emission from the active enzyme, sample time 15 min ([4]; reaction type A: no additive): 170.7
Light emission from the active enzyme, sample time 30 min ([4]; reaction type A: no additive): 175.6
Light emission from the active enzyme, sample time 45 min ([4]; reaction type A: no additive): 164.6
Light emission from the active enzyme, sample time 60 min ([4]; reaction type A: no additive): 146.5
Light emission from the active enzyme, sample time 0 min ([4]; reaction type B: +Coenzyme A): 243.6
Light emission from the active enzyme, sample time 15 min ([4]; reaction type B: +Coenzyme A): 218.2
Light emission from the active enzyme, sample time 30 min ([4]; reaction type B: +Coenzyme A): 211.1
Light emission from the active enzyme, sample time 45 min ([4]; reaction type B: +Coenzyme A): 208.2
Light emission from the active enzyme, sample time 60 min ([4]; reaction type B: +Coenzyme A): 192.1
Light emission from the active enzyme, sample time 0 min ([4]; reaction type C: +DTT): 188.7
Light emission from the active enzyme, sample time 15 min ([4]; reaction type C: +DTT): 203.9
Light emission from the active enzyme, sample time 30 min ([4]; reaction type C: +DTT): 187.9
Light emission from the active enzyme, sample time 45 min ([4]; reaction type C: +DTT): 191.5
Light emission from the active enzyme, sample time 60 min ([4]; reaction type C: +DTT): 188.7
Light emission from the active enzyme, sample time 0 min ([4]; reaction type D: no ATP): 199.9
Light emission from the active enzyme, sample time 30 min ([4]; reaction type D: no ATP): 190.4
Light emission from the active enzyme, sample time 45 min ([4]; reaction type D: no ATP): 197.4
Light emission from the active enzyme, sample time 60 min ([4]; reaction type D: no ATP): 194.2
